Measured values published in patent US20100093645A1, “SMAC Peptidomimetics and the Uses Thereof” (priority 2004, published 2010).
Values joined by “and” are separate entries in the source; they are usually repeats but may differ in a detail not shown here. Identical values can stand only once.

Protein sequences, listed by entry. Tags and fused reporters are not part of them. Residues count along the entry.
UniProt P98170, 241-356: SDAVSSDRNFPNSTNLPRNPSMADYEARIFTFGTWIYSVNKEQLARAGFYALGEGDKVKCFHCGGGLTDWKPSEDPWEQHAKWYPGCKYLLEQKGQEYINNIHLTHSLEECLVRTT

Biological target: human XIAP-BIR3 protein (residues 241-356) (Homo sapiens, UniProt P98170)
Assay: biochemical

SMILES | Ki
CC(C)[C@H](NC(=O)[C@H](C)N)C(=O)N1CCC[C@H]1C(=O)NCC(c1ccccc1)c1ccccc1 [CJ-459] | 1210 nM
CC(C)[C@H](NC(=O)[C@H](C)N)C(=O)N1CCC[C@H]1C(=O)NC(c1ccccc1)c1ccccc1 [Compound 11] | 50 nM and 96 nM
